Patent publication US20250243196A1, “CITRON KINASE INHIBITORS” (The Cleveland Clinic Foundation, priority 2021, published 2025)

The chains behind the UniProt entries cited, without tags or fusion partners. Where a name states a change or a piece, a line headed by the entry shows the natural chain unless it says otherwise.
UniProt Q2M2I8: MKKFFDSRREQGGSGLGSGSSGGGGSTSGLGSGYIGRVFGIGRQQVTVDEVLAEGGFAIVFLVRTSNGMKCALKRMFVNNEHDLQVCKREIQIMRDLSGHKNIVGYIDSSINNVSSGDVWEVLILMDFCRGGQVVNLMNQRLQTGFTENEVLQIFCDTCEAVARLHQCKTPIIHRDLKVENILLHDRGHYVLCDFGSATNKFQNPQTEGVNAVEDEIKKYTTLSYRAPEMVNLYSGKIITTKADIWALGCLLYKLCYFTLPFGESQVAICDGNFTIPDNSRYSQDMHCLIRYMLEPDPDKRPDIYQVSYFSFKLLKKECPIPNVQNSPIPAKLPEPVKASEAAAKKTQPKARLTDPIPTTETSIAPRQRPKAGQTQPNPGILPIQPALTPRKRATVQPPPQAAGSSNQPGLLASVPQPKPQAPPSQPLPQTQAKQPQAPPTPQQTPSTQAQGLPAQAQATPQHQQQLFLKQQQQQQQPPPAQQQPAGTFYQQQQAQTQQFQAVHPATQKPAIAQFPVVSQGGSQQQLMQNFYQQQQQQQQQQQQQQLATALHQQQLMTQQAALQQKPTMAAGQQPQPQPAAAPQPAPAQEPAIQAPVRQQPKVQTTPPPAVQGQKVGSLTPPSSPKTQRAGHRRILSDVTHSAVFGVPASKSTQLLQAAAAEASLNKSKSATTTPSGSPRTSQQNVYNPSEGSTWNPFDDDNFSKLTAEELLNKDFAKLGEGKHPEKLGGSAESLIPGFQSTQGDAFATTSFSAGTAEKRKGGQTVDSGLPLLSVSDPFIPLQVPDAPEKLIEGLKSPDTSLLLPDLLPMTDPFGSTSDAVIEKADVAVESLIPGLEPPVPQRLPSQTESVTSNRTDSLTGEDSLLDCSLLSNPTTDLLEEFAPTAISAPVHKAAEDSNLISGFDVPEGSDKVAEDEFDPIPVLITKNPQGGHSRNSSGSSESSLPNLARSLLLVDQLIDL
UniProt Q8NE63: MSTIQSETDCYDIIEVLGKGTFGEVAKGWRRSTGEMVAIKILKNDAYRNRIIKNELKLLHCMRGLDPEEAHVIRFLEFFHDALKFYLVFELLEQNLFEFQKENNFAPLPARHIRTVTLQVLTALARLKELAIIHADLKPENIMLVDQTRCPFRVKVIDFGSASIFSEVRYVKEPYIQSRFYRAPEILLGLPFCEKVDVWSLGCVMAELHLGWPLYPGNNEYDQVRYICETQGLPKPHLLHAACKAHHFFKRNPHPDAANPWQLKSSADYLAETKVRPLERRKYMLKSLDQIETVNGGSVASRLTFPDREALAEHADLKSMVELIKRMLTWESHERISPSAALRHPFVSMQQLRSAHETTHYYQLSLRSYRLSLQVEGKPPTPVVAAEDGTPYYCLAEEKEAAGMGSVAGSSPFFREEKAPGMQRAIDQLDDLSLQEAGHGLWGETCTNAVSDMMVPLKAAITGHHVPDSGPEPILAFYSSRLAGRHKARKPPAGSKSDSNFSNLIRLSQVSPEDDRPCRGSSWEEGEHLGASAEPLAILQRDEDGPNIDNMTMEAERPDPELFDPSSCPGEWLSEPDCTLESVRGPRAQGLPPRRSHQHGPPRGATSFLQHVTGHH
UniProt Q9HBH9: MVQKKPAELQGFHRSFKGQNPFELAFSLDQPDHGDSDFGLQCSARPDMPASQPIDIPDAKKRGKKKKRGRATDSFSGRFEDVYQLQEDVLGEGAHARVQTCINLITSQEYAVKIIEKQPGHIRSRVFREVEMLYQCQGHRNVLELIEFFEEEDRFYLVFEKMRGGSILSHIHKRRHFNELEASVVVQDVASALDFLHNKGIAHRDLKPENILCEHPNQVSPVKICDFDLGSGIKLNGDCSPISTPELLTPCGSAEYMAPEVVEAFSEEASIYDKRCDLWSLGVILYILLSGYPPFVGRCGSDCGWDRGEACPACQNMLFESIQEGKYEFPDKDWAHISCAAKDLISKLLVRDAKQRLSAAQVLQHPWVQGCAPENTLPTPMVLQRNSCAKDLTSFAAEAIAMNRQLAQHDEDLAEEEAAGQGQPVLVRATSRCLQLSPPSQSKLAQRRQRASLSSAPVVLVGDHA

Legend:
Assay in all cases: KinaseProfiler panel
Format in all cases: biochemical
Set-up in all cases: dose or concentration left out as unconfirmed
Conditions in all cases: activity remaining
AAK1(h) = AAK1(h) (Homo sapiens (Human), UniProt Q2M2I8)
HIPK4(h) = HIPK4(h) (Homo sapiens (Human), UniProt Q8NE63)
Mnk2(h) = Mnk2(h) (Homo sapiens (Human), UniProt Q9HBH9)

Cc1cc2c(-c3ccc(NC(=O)[C@H](N)CC(C)(C)C)cc3C)ccnc2[nH]1 [Compound F-90, (2R)-2-Amino-4,4-dimethyl-N-[3-methyl-4-(2-methyl-1H-pyrrolo[2,3-b]pyridin-4-yl)phenyl]pentanamide]
% Activity (AAK1(h)): 13%
% Activity (HIPK4(h)): 52%
% Activity (Mnk2(h)): 35%
